From ChEMBL document CHEMBL2406932, “Heteroaromatic and aniline derivatives of piperidines as potent ligands for vesicular acetylcholine transporter” (J Med Chem, 2013)

Protein sequences, listed by entry. Tags and fused reporters are not part of them.
UniProt Q60492, whole entry: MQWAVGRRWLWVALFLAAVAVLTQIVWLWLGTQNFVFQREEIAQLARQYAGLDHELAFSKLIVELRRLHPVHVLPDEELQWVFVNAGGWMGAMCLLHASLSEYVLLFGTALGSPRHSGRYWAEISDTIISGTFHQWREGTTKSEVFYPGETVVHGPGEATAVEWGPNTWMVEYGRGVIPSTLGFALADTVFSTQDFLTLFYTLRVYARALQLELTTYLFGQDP

Columns and labels:
[1] = molecular target: Sigma non-opioid intracellular receptor 1 (Cavia porcellus, UniProt Q60492); assay: Displacement of (+)- [3H]pentazocine from sigma 1 receptor expressed in guinea pig brain membrane homogenates by scintillation counting analysis; assay type: cell membranes
Method in brief: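 Guinea pig brain membrane homogenate (~300 µg protein) with ~5 nM (+)-[3H]pentazocine, 90 min at room temperature in 50 mM Tris-HCl, 150 mM NaCl, pH 7.4. Nonspecific binding taken with 10 µM haloperidol. Stopped with ice-cold wash buffer, then rapid filtration and washes. IC50 from nonlinear regression, one-site fit.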

PC-12 [2] = assay: Selectivity ratio, ratio of Ki for sigma 1 receptor in guinea pig brain homogenates to Ki for human VAChT expressed in rat PC12 cells; assay type: cell-based
Method in brief: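 Sigma-1 binding used guinea pig brain membranes (~300 µg protein) with ~5 nM (+)-[3H]pentazocine, 90 min at room temperature; nonspecific binding was set with 10 µM haloperidol. […] The index is Ki(σ1)/Ki(VAcHT).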

PC-12 [3] = assay: Selectivity ratio, ratio of Ki for sigma 2 receptor in rat liver homogenates to Ki for human VAChT expressed in rat PC12 cells; assay type: cell-based

Row | SMILES | Ki [1] [µM] | Ratio Ki (PC-12 [2]) | Ratio Ki (PC-12 [3])
1 | Cc1ccc(C(=O)C2CCN([C@@H]3Cc4c(N)cccc4C[C@H]3O)CC2)cn1 (racemic) | 11.4 | – | –
2 | Cc1ccc(C(=O)C2CCN([C@@H]3Cc4ccccc4C[C@H]3O)CC2)cn1 (racemic) | – | 76 | 140
